This is a selection; strong and weak results do not stand in their true shares. Some tests of the compounds listed are not included; inactive here does not mean inactive elsewhere. Active and inactive are the calls of the source.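 How the source made its calls: active means diaphorase activity raised at least twofold by the compound at 20 µM; inactive means activation factor below 2.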

Drawing on PubChem BioAssay AID1229 (Sanford-Burnham Center for Chemical Genomics, 2008), this text covers activation factor for nine molecules.

A short description of the assay: compounds boosting diaphorase resazurin reduction – biochemical, uHTS, resorufin fluorescence, counter-screen for diaphorase-coupled primary assays, primary screen (AID 1229). The settings on record: Diaphorase/resazurin coupled assay, 16 min, at 20 µM; stronger effect = higher value, 1 = vehicle wells, 0 = NADH-free wells. In short, it runs like this: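 System – purified diaphorase enzyme from Clostridium kluyveri · Input – enzyme 0.07 U/mL final · Also added – final NADH 0.114 mM, resazurin 0.1 mM · Measured by – fluorescence of resorufin, 544 nm excitation, 590 nm emission · Timing – 16 min enzyme reaction, ambient temperature · Measure – resorufin increase flagging diaphorase activators or reducers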
Consider `CN(C)c1cccc(C(=O)NCC2(N(C)C)CCCCC2)c1`, for which the activation factor was inactive: 0.8.

As for `O=C(OC1CN2CCC1CC2)C(CO)(c1ccccc1)c1ccccc1` (centres undefined), the activation factor entry is “inactive”.

On to `COc1cccc(C(=O)NCC2(N3CCCCC3)CCCCC2)c1`, for which the activation factor result was “inactive”.

As for `C=CCN1CCN(CCOC(=O)C(O)(c2ccccc2)c2ccccc2)CC1`, the activation factor result was “inactive”.

Consider `CCN1CCCC(OC(=O)C2(O)c3ccccc3C=Cc3ccccc32)C1` (centres undefined), for which the activation factor is inactive: 1.

As for `Cc1ccccc1C(=O)NCC1(N2CCCCC2)CCCCC1`, the activation factor is inactive: 1.

Consider `CN(C)C1CCCC1OC(=O)C(O)(c1ccccc1)c1ccccc1` (centres undefined), for which the activation factor was inactive: 1.

Take `CC(C)N1C(=O)CC2(CCN(CCOC(=O)C(O)(c3ccccc3)c3ccccc3)CC2)C1=O`: the activation factor is inactive: 1.

Turning to `O=C(NCC1(N2CCCCC2)CCCCC1)c1cc([N+](=O)[O-])ccc1Cl`, the activation factor was inactive: 1.1.
